This assay has as its target butyrylcholinesterase (BuChE) (Homo sapiens, UniProt P06276). Nature of the assay: biochemical. The following applies: IC50 against butyrylcholinesterase (BuChE), human enzyme; dose response 0.01 to 100 µM.

Sequences of proteins named here, by UniProt entry; tags and fusion partners are left off. Residues count along the entry.
UniProt P06276, 29-602: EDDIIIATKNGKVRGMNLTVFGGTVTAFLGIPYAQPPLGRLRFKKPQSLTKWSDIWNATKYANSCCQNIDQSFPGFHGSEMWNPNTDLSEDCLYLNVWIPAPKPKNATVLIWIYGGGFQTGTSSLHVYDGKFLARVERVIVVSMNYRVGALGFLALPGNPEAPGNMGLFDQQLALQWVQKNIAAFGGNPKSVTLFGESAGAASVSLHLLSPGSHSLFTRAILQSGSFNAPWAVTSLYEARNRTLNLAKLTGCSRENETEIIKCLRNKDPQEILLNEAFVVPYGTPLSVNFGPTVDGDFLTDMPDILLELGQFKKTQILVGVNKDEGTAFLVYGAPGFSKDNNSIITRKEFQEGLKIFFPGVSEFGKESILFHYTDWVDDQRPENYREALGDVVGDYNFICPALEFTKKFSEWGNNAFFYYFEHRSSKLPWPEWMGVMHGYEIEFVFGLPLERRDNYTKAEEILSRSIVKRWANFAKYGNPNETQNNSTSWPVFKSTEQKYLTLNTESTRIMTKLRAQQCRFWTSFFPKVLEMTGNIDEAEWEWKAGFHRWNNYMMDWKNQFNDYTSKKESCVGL

The values below come from PMC11510214, “Novel Dual Acetyl- and Butyrylcholinesterase Inhibitors Based on the Pyridyl–Pyridazine Moiety for the Potential Treatment of Alzheimer’s Disease” (Pharmaceuticals, 2024).

Regarding `CCN(C)C(=O)Oc1cccc([C@H](C)N(C)C)c1` [Rivastigmine, rivastigmine, reference compound], the IC50 (in general, the point on the concentration scale where inhibition reaches its midpoint) stood at 18.1 ± 0.59 µM.
